Here are results for one substance from US8426138B2 (priority 2006, dated 2013).

Chains of the proteins cited; added tags and fusions are not shown.
UniProt P29754, whole entry: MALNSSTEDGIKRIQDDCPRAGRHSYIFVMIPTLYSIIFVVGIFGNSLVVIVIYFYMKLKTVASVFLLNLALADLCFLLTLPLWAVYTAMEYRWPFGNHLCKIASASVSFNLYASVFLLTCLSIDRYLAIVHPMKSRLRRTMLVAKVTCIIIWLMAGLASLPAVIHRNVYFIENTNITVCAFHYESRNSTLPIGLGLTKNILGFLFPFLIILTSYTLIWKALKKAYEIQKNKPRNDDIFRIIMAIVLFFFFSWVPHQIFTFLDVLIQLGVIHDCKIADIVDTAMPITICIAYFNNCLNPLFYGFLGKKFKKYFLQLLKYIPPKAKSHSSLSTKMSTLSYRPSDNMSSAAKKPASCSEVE

Where two headings read alike, the source gives them in different places.

This assay has as its target Angiotensin II receptor 1a (AT1a) (Mus musculus, UniProt P29754). To be noted: 2 hr. From the text: Plasmids. […] Other FYVE domains were generated similarly by RT-PCR^˜. […] To generate a β2AR-eYFP-α construct, the eYFP-α fragment was subcloned into the β2AR-ωplasmid using Xhol and HindIII. The Angiotensin receptor 1a was derived by RT-PCR from C57/BI6 mouse brain RNA using primers for the entire coding sequence, minus the stop codon; it was cloned N-terminally to eYFP-α or ω with MfeI and XhoI. […] Finally, to generate fusion proteins with β-arrestin, the full coding sequence of human β-arrestin B2 was PCR amplified from a cDNA clone and inserted into the Mfel-XhoI sites of the ω and eYFP-α vectors.
Assays and cell preparation. […] LysoTracker Red and Texas Red-labeled transferrin were purchased from Molecular Probes. The Kinase/Phosphatase Inhibitor Library was purchased from BIOMOL, and the Mechanistic and Diversity Compound Libraries were provided by the Developmental Therapeutics Program of the National Cancer Institute. Cells were plated and grown to confluency in 96-well white tissue culture dishes (Corning Costar), in 100 μl of growth media. Dose-response curves were generated by adding the respective ligand to the media and incubating for 2 h at 37° C. […]

In the case of angiotensin II, the EC50 is, setting by setting: (read-out: EC50, arrestin-binding activation assay) 2.4 nM; (read-out: EC50, internalization assay) 3.3 nM.
